Experiments:
[1] = molecular target: ALK R1275Q (Homo sapiens, UniProt Q9UM73, R1275Q); experiment: Cell free kinase assay (Carna Biosciences kinases), ALK R1275Q
[2] = molecular target: TrkB (Homo sapiens, UniProt Q16620); experiment: In vitro kinase activity assay (LANCE TR-FRET), TrkB; format: biochemical
[3] = molecular target: TrkA (Homo sapiens, UniProt P04629); experiment: In vitro kinase activity assay (LANCE TR-FRET), TrkA; format: biochemical; details: read-out: TrKA IC50

The chains behind the UniProt entries cited, without tags or fusion partners. Residues count along the entry.
UniProt Q9UM73, 1060-1620 R1275Q limits assumed: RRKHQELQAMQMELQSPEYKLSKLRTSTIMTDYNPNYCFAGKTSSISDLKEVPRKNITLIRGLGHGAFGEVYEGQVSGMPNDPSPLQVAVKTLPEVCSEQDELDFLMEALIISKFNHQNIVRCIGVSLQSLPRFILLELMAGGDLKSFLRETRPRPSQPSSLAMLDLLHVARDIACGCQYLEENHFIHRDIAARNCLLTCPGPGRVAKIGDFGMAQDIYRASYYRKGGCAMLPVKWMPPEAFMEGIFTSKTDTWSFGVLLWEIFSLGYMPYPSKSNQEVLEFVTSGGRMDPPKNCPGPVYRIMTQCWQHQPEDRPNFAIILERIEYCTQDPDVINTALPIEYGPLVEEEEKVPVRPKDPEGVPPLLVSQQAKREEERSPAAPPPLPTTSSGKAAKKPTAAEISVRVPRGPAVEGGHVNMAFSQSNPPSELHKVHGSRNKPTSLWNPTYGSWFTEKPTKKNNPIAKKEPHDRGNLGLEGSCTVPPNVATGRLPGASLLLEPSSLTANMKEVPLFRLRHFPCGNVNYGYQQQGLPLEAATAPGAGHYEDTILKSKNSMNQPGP
UniProt Q16620, 32-822: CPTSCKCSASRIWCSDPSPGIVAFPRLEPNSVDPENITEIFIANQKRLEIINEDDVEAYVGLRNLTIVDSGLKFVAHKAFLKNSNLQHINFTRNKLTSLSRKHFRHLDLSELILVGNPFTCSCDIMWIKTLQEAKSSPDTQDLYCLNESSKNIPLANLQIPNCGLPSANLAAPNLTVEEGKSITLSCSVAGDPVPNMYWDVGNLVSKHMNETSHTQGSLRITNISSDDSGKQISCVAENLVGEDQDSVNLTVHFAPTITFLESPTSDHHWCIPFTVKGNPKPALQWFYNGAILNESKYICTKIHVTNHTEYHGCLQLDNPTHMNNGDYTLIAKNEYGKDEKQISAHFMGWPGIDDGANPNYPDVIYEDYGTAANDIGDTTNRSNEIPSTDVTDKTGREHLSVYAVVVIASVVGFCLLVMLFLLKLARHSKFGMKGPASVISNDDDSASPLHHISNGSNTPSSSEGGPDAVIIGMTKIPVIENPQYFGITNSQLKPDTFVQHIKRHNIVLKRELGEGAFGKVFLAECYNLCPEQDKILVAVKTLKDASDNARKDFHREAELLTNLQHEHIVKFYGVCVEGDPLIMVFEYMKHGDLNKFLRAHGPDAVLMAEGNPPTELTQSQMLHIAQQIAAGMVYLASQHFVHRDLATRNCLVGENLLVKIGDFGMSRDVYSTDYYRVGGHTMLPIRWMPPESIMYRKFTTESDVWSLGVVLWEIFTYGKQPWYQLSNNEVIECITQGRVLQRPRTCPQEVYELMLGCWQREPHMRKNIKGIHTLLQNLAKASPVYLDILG
UniProt P04629, 33-796: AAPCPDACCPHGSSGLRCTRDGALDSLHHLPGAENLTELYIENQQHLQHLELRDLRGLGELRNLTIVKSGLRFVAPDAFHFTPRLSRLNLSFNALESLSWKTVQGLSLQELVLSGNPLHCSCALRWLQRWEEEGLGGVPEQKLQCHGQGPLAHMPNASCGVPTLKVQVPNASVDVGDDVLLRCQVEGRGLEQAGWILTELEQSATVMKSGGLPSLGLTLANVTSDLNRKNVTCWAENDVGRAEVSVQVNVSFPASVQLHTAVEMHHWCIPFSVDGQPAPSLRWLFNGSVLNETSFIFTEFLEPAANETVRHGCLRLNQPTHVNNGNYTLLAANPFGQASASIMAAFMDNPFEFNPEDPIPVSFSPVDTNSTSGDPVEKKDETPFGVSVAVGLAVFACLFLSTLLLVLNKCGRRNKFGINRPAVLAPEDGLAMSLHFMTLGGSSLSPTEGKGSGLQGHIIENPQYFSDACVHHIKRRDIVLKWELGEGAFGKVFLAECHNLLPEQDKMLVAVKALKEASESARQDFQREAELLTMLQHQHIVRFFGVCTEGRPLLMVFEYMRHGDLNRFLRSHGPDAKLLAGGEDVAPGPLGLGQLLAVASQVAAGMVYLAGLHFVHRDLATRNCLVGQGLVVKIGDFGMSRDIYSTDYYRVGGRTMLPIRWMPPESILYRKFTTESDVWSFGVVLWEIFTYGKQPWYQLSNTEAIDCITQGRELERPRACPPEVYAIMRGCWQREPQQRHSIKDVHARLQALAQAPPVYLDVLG

## 2-(4-(1-(5-Fluoro-2-methylphenyl)propan-2-ylamino)-2-oxo-1,2-dihydropyridin-3-yl)-6-(2-(dimethylamino)ethyl)-6,7-dihydroimidazo[4,5-f]isoindole-5(1H)-one [Compound 45]
[1]
  cell free R1275Q resistance: 4 fold

## C[C@@H](Cc1c(F)c(F)cc(F)c1F)Nc1cc[nH]c(=O)c1-c1nc2cc3c(cc2[nH]1)CN(C1CCN(C)CC1)C3=O [Compound 4, (S)-6-(1-Methylpiperidin-4-yl)-2-(2-oxo-4-(1-(2,3,5,6-tetrafluorophenyl)propan-2-ylamino)-1,2-dihydropyridin-3-yl)-6,7-dihydroimidazo[4,5-f]isoindol-5(3H)-one]
[2]
  IC50: 3.48 nM

## (S)-6-(2-(Dimethylamino)ethyl)-2-(2-oxo-4-((1-(2,3,5,6-tetrafluorophenyl)propan-2-yl)amino)-1,2-dihydropyridin-3-yl)-6,7-dihydroimidazo[4,5-f]isoindol-5(3H)-one [Compound 1]
[3]
  IC50: 1 nM
